Measured values reported in PubChem BioAssay AID463115 (University of Pittsburgh Molecular Library Screening Center, 2010).
The entries are a selection whose mix differs from that of the whole data set. Some tests of the compounds listed are not included; inactive here does not mean inactive elsewhere. The source made the active and inactive calls. No stated cut-off is given here; in the data, active means inhibition above about 25%; inactive means the rest.

Sequences of proteins named here, by UniProt entry; tags and fusion partners are left off. Residues count along the entry.
UniProt P09958, 108-714 limits assumed: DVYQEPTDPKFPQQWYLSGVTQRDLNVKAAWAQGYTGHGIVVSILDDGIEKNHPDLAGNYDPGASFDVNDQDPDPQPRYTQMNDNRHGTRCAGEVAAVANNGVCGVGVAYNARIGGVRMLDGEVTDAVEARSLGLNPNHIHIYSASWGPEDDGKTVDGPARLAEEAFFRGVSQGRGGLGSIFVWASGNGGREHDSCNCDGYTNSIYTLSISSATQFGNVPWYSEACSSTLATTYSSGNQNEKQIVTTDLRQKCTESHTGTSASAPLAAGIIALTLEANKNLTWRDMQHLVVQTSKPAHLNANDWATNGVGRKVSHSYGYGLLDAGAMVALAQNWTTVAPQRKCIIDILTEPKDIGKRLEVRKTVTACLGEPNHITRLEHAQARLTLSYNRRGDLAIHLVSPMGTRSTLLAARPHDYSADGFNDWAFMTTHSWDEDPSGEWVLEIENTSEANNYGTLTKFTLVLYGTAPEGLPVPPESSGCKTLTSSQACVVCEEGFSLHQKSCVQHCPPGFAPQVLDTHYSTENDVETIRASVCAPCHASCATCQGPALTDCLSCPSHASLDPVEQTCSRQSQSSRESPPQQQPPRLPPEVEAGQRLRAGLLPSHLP

These molecules were tested against Furin (Homo sapiens) (UniProt P09958) (assay: human furin inhibitors, primary screen, biochemical, fluorescence intensity (AID 463115)). Conditions: purified furin, fluorogenic substrate cleavage, stronger effect = higher value; at 30 µM unless noted.

Compound	inhibition
O=C(NCC1(N2CCCCC2)CCCCC1)c1cc([N+](=O)[O-])ccc1Cl	inactive: -15.6%
CCN(CC)CC(C)C(C)OC(=O)C(O)(c1ccccc1)c1ccccc1 (stereo unspecified)	inactive: -1.87%
CC(C)N1C(=O)CC2(CCN(CCOC(=O)C(O)(c3ccccc3)c3ccccc3)CC2)C1=O	inactive: -8.37%
CN(C)C1CCCC1OC(=O)C(O)(c1ccccc1)c1ccccc1 (stereo unspecified)	inactive: -12.6%
Cc1ccccc1C(=O)NCC1(N2CCCCC2)CCCCC1	inactive: -18.5%
C=CCN1CCN(CCOC(=O)C(O)(c2ccccc2)c2ccccc2)CC1	inactive: -15.9%
CCN1CCCC(OC(=O)C2(O)c3ccccc3C=Cc3ccccc32)C1 (stereo unspecified)	inactive: -21.3%
COc1cccc(C(=O)NCC2(N3CCCCC3)CCCCC2)c1	inactive: -22%
O=C(OC1CN2CCC1CC2)C(CO)(c1ccccc1)c1ccccc1 (stereo unspecified)	inactive: -23.9% [at 20 µM]
COc1ccc(Br)c(C(=O)NCC2(N3CCCCC3)CCCCC2)c1	inactive: -18.7%
CN(C)c1cccc(C(=O)NCC2(N(C)C)CCCCC2)c1	inactive: -22.1%
